Earlier results in patent US4910012A, “Products containing Tc-99-m-ωalkylphosphinico-1-hydroxyalkane-1,1-diphosphonates for bone scintigraphy and a process for the preparation of these products” (Hoechst Aktiengesellschaft, priority 1988, dated 1990).

Conditions: in vivo; cited from earlier work

Tc-99m-labelled stannous ethane-1-hydroxy-1,1-diphosphonate [Tc-99m-HEDP]
clearance from the plasma: significantly quicker clearance
